Screens (PubChem BioAssay)
INS-1E GSIS act: primary screen for activators of insulin secretion dependent on glucose, INS-1E cells, GLuc reporter luminescence; activation, % at 16.6 µM; AID 743287; INS-1E GLuc reporter insulin secretion, 2-3 h; hit rate 0.61% among 370,000;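 active means lowest replicate activation of at least 40%, so every replicate reaches that level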;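 further: 0% = median of neutral control wells and 100% = median of IBMX positive control wells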
Casp6 inh: caspase-6 (human) enzyme inhibition; P55212; purified caspase-6, Z-VEID-R110 cleavage fluorescence; inhibition, % at 12.5 µM; hit rate 0.53% among 350,000;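 active means mean inhibition across replicates at least about 35%, with every replicate also reaching that limit, limit read from the data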;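 further: 0% = median of neutral control wells and 100% = no fluorescence left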
PglD inh: inhibitors of Campylobacter jejuni PglD acetyltransferase | purified PglD enzyme, DTNB colorimetric CoA detection | inhibition, % at 12.5 µM | hit rate 0.098% among 360,000 | AID 602405; in the data active means inhibition above about 16%, passing the limit was not always enough
RAD52 anneal inh: inhibitors of human RAD52 DNA annealing. recombinant RAD52 DNA annealing, FRET fluorescence. hit rate 0.46% among 360,000. P43351. inhibition, % at 18.7 µM;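 active means every replicate showing at least 50% inhibition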
RAD54 inh: RAD54 (human) branch migration inhibition; RAD54 Holliday junction branch migration, FAM/BHQ fluorescence; inhibition, % at 10.4 µM; hit rate 0.14% among 360,000;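 active means mean normalized replicate activity at least 40 and at least half of replicates scoring 40 or more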;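 further: 0% = median of neutral control wells and 100% = median of positive control wells; inhibitors cause a drop in the FAM fluorescence signal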
Yeast UUG start: alters start codon recognition fidelity in yeast. S. cerevisiae UUG-firefly luciferase reporter, luminescence/redox ratio. AID 602363. activity score, % at 18.7 µM. hit rate 0.13% among 350,000;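 active = replicate mean at a twofold rise or more, about +100% in these data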;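 note: firefly luciferase made from a UUG start codon reports start codon fidelity; reporter light over untreated wells divided by growth signal over untreated wells; some hits fall short of that in this replicate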
* = called active by the depositor; i = inactive; nt = no result given. Compounds with a hit are over-represented: about 1.5% of the library has one in this group of screens.

1. CC(=O)c1ccc(C(=O)N2CCCC(C(=O)c3cc(F)ccc3F)C2)s1 (configuration not stated)
2. COc1ccc(F)cc1C(=O)C1CCCN(C(=O)c2ccc(C(C)=O)s2)C1 (configuration not stated)
3. O=C(O)CCC(=O)Nc1ccc(-c2nc3ccc(C(=O)c4ccccc4)cc3[nH]2)cc1
4. O=C(c1ccccc1)c1ccc2nc(-c3ccc(NC(=O)c4ccccc4F)cc3)[nH]c2c1
5. Cc1nnc(SCC(=O)Nc2cc(Cl)ccc2Cl)n1CC1CCCO1 (configuration not stated)
6. CCC(CC)C(=O)N(C)c1c(C)nc2c(OCc3ccc(Cl)cc3Cl)cccn12
7. CN(C)CC#Cc1ccc([C@@H]2[C@@H](CO)N3CCCCN(C(=O)CN(C)C)C[C@H]23)cc1
8. CN(C)CC#Cc1ccc([C@H]2[C@@H](CO)N3CCCCN(C(=O)CN(C)C)C[C@H]23)cc1
9. COCC#Cc1ccc([C@@H]2[C@@H](CO)N3CCCCN(C(=O)CN(C)C)C[C@H]23)cc1
10. CC(C)CC#Cc1ccc([C@@H]2[C@H](CO)N3CCCCN(C(=O)c4ccc5c(c4)OCO5)C[C@@H]23)cc1
screen / no. | 1 | 2 | 3 | 4 | 5 | 6 | 7 | 8 | 9 | 10
INS-1E GSIS act | -11 | 76* | 19 | 197* | 73* | -18 | 12 | 11 | 19 | -19
Casp6 inh | -1 | 8 | 7 | nt | -3 | 2 | 17 | 2 | 1 | 0
PglD inh | -3 | 0 | 7 | -2 | 3 | 13 | 3 | 1 | -3 | 2
RAD52 anneal inh | 8 | -6 | 1 | nt | -12 | -23 | 61* | 87* | 26 | 58*
RAD54 inh | 5 | -7 | 13 | -4 | 1 | -1 | -1 | 13 | 13 | -6
Yeast UUG start | -5 | -31 | 1 | -2 | -15 | -7 | 32 | 17 | 11 | -4

Limited to RAD54 inh, RAD52 anneal inh and Yeast UUG start, for four of the compounds above:
No.	SMILES	RAD54 inh	RAD52 anneal inh	Yeast UUG start
4	O=C(c1ccccc1)c1ccc2nc(-c3ccc(NC(=O)c4ccccc4F)cc3)[nH]c2c1	-4	nt	-2
5	Cc1nnc(SCC(=O)Nc2cc(Cl)ccc2Cl)n1CC1CCCO1 (configuration not stated)	1	-12	-15
6	CCC(CC)C(=O)N(C)c1c(C)nc2c(OCc3ccc(Cl)cc3Cl)cccn12	-1	-23	-7
7	CN(C)CC#Cc1ccc([C@@H]2[C@@H](CO)N3CCCCN(C(=O)CN(C)C)C[C@H]23)cc1	-1	61*	32

More records:
11. COCC#Cc1ccc([C@H]2[C@H]3CN(C(=O)CN(C)C)CCCCN3[C@H]2CO)cc1
12. CN(C)CC#Cc1ccc([C@H]2[C@H](CO)N3CCCCN(C(=O)CN(C)C)C[C@@H]23)cc1
13. CC(C)CC#Cc1ccc([C@H]2[C@H]3CN(C(=O)c4ccc5c(c4)OCO5)CCCCN3[C@H]2CO)cc1
14. Cc1cccc2c3nc4ccccc4nc3n(C)c12
15. COc1cc(/C=C2\SC(=S)N(NC(=O)c3cccc(O)c3)C2=O)ccc1O
16. CN(C)CC#Cc1ccc([C@@H]2[C@H](CO)N3CCCCN(C(=O)CN(C)C)C[C@@H]23)cc1
17. COCC#Cc1ccc([C@@H]2[C@@H](CO)N3CCCCN(C(=O)CN(C)C)C[C@@H]23)cc1
18. CN(C)CC#Cc1ccc([C@@H]2[C@H]3CN(C(=O)CN(C)C)CCCCN3[C@H]2CO)cc1
19. CCS(=O)(=O)N1CC2(CN(C(=O)Nc3c(C)noc3C)[C@H](CO)c3c2c2ccc(OC)cc2n3C)C1
20. Nc1nc(-c2cc(O)ccc2[N+](=O)[O-])cc(-c2ccccc2)c1[N+](=O)[O-]
screen / no. | 11 | 12 | 13 | 14 | 15 | 16 | 17 | 18 | 19 | 20
INS-1E GSIS act | 18 | 8 | -26 | 15 | -19 | 10 | 4 | 19 | 26 | 4
Casp6 inh | 1 | 4 | 1 | -3 | 9 | 0 | -1 | 3 | 0 | 47*
PglD inh | 0 | -5 | -4 | -3 | -7 | 8 | 2 | -4 | nt | -3
RAD52 anneal inh | -19 | 74* | -27 | -12 | i | 88* | -10 | 62* | 19 | -48
RAD54 inh | -1 | -17 | 0 | 25 | -213 | -1 | 8 | -10 | nt | -1
Yeast UUG start | 18 | 20 | -7 | 22 | -26 | 22 | 12 | 5 | nt | -8

21. O=C1C=CC2=C3c4cc(O)c(O)cc4CC3(O)COC2=C1O (configuration not stated)
22. COCC(=O)OC1CCn2c1nc1c2C(=O)C(C)=C(NC(C)=O)C1=O (configuration not stated)
23. COc1ccc(C(=O)CSc2nnc(-c3cccs3)n2-c2ccccc2)cc1
24. Cn1c(SCC(=O)c2ccc(O)c(O)c2)nnc1-c1cccs1
25. Fc1ccc(Br)cc1C1C=C(c2ccc(Br)cc2)Nc2ncnn21 (configuration not stated)
26. O=[N+]([O-])c1ccc(S(=O)(=O)c2ccccc2)nc1
27. Cc1ccc(S(=O)(=O)c2ccc([N+](=O)[O-])cn2)cc1
28. Cn1c(SCc2nnc3n2CCCCC3)nc2ccccc21
29. Cc1c(NC(=O)N(C)c2ccccc2)c(=O)n(-c2ccccc2)n1C
30. O=C1C=C(O)c2[nH]c(=O)ccc2C1=O
screen / no. | 21 | 22 | 23 | 24 | 25 | 26 | 27 | 28 | 29 | 30
INS-1E GSIS act | -17 | -46 | 46* | 14 | 3 | 77* | 45* | 66* | nt | -6
Casp6 inh | 85* | 99* | nt | 40* | -1 | 7 | 14 | nt | -1 | 84*
PglD inh | -2 | nt | -2 | nt | -7 | -2 | 3 | 1 | -9 | nt
RAD52 anneal inh | -3 | 28 | nt | -5 | -35 | -14 | -3 | nt | 22 | -8
RAD54 inh | 10 | nt | 4 | nt | -7 | -3 | 14 | 4 | -5 | nt
Yeast UUG start | -2 | nt | 3 | nt | -12 | -42 | -30 | -10 | -21 | nt

31. O=C(NC1CCCCC1)NC1CCN(C(=S)NCc2ccco2)CC1
32. S=C(NC1CC1)SCc1ccco1
33. O=C(O)c1cccc(-c2csc(C(O)c3ccc(F)cc3)n2)c1 (configuration not stated)
34. CNC[C@@H]1OCCCC[C@@H](C)Oc2ccc(NC(=O)Nc3ccc(F)cc3)cc2C(=O)N([C@@H](C)CO)C[C@H]1C
35. O=C(Nc1ccc2ccccc2c1)c1cccc2ccccc12
36. O=C(Nc1ccncc1)c1cccc2ccccc12
37. COc1ccc(/C(=N/O)C(C)(C)NO)cc1
38. CCCCCCCCOC(=O)c1nc(Cl)c(Cl)c(N)c1Cl
39. N/C(=N\N=C/c1ccc(F)cc1)N/N=C\c1ccc(F)cc1
40. Cc1ccccc1N1C(=O)Cc2ccccc2C1=O
screen / no. | 31 | 32 | 33 | 34 | 35 | 36 | 37 | 38 | 39 | 40
INS-1E GSIS act | 0 | 16 | nt | 2 | 71* | -2 | nt | 60* | nt | 6
Casp6 inh | nt | 53* | 1 | nt | 1 | -2 | nt | 3 | -5 | 54*
PglD inh | -5 | -2 | -4 | nt | 1 | -5 | -4 | 3 | -1 | 5
RAD52 anneal inh | nt | -15 | -2 | nt | -8 | 11 | nt | -10 | -1 | 13
RAD54 inh | 1 | -7 | 3 | nt | -5 | 8 | -1 | -16 | 3 | -10
Yeast UUG start | -18 | -16 | -28 | nt | -4 | -18 | -15 | -10 | -20 | 4

41. O=C1Cc2ccccc2C(=O)N1Nc1ccccc1
42. COc1ccc(N2C(=O)Cc3ccccc3C2=O)cc1
43. CN(NC(=O)c1ccc(Cl)cc1)c1ncc(C(F)(F)F)cc1Cl
44. CCn1ccc(C(=O)NC2C(=O)N3C(C(=O)O)=C(C)CSC23)n1 (configuration not stated)
45. C=CC1=C(C(=O)O)N2C(=O)[C@@H](NC(=O)/C(=N\O)c3csc(N)n3)[C@H]2SC1 (stereo in doubt)
46. Cc1ccc(S(=O)(=O)NCCC(=O)N2CCN(C/C=C/c3ccccc3)CC2)cc1
47. Cc1ccc(C(=O)CCC(=O)NCc2ccccc2)cc1
48. Cc1ccc(C(=O)NCC(c2ccco2)N2CCc3ccccc3C2)cc1 (configuration not stated)
screen / no. | 41 | 42 | 43 | 44 | 45 | 46 | 47 | 48
INS-1E GSIS act | 22 | 2 | nt | nt | nt | nt | -1 | -4
Casp6 inh | 49* | 43* | 10 | nt | 87* | 0 | nt | 14
PglD inh | nt | -6 | nt | 7 | 1 | -3 | -3 | 1
RAD52 anneal inh | -16 | -10 | -15 | nt | -28 | -11 | -17 | -30
RAD54 inh | nt | -3 | nt | 4 | -3 | 3 | 7 | 10
Yeast UUG start | nt | -5 | nt | -34 | -10 | -8 | 2 | 2
